Experimental data taken from ChEMBL document CHEMBL5120744, “Dual acting oximes designed for therapeutic decontamination of reactive organophosphates via catalytic inactivation and acetylcholinesterase reactivation” (2021).

Assay: Permeability of compound by PAMPA assay

Row | SMILES | permeability
1 | CN(C)CCCNC(=O)/C=N/O | 1.8 ×10⁻⁶ cm/s
2 | O=C(/C=N/O)NCC(O)CO (stereo not given) | 0.61 ×10⁻⁶ cm/s
3 | CC(=O)/C(C)=N/O | 6 ×10⁻⁶ cm/s
4 | NCC(O)CNC(=O)/C=N/O (stereo not given) | 0.81 ×10⁻⁶ cm/s
5 | C[N+](C)(C)CCNC(=O)/C=N/O.[I-] | 1.6 ×10⁻⁶ cm/s
6 | O=C(/C=N/O)NCc1ncc[nH]1 | 1.1 ×10⁻⁶ cm/s
7 | CN(C)CCNC(=O)/C=N/O | 2.2 ×10⁻⁶ cm/s
8 | CCN(CC)CCNC(=O)/C=N/O | 1.1 ×10⁻⁶ cm/s
9 | O=C(/C=N/O)NCCN1CCCC1 | 1.1 ×10⁻⁶ cm/s
10 | NCCNC(=O)/C=N/O | 1.4 ×10⁻⁶ cm/s
